This test deals with Alpha-glucosidase (Saccharomyces cerevisiae S288c, UniProt P53341+P38158+P07265). In words: Inhibition of Saccharomyces cerevisiae alpha-glucosidase using p-nitrophenyl-alpha-D-glucopyranoside as substrate preincubated with substrate for 5 mins followed by enzyme addition and measured after 15 mins. It is filed as protein assay.

The chains behind the UniProt entries cited, without tags or fusion partners. Where a name states a change or a piece, a line headed by the entry shows the natural chain unless it says otherwise.
UniProt P53341: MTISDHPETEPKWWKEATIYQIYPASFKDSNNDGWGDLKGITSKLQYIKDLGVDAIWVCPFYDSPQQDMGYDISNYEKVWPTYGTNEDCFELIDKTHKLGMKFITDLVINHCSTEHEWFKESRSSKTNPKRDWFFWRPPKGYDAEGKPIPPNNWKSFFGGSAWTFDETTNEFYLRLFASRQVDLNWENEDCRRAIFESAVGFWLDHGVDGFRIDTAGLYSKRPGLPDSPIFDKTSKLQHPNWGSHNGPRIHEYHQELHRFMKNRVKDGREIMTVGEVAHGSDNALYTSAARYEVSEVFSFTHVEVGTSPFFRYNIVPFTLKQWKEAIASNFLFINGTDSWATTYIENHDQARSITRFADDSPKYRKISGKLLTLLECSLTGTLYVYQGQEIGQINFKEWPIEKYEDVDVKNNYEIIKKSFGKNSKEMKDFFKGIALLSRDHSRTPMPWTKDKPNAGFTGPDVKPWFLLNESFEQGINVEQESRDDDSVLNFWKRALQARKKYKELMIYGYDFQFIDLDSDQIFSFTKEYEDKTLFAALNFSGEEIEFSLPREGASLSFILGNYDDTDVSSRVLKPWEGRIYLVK
UniProt P38158: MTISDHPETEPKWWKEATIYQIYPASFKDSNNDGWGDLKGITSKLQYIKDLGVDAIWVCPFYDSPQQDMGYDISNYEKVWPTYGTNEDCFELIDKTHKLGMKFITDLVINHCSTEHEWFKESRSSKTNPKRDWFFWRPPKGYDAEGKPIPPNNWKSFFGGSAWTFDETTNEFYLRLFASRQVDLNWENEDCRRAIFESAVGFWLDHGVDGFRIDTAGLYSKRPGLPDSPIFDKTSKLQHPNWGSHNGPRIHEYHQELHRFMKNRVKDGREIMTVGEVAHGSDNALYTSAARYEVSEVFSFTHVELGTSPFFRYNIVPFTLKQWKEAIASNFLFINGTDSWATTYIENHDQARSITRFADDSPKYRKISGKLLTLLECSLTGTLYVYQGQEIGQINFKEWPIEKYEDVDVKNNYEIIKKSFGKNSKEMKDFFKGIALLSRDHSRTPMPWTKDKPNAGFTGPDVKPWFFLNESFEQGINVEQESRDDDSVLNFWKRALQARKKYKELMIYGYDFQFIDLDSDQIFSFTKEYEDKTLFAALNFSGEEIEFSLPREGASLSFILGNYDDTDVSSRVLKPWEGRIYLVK
UniProt P07265: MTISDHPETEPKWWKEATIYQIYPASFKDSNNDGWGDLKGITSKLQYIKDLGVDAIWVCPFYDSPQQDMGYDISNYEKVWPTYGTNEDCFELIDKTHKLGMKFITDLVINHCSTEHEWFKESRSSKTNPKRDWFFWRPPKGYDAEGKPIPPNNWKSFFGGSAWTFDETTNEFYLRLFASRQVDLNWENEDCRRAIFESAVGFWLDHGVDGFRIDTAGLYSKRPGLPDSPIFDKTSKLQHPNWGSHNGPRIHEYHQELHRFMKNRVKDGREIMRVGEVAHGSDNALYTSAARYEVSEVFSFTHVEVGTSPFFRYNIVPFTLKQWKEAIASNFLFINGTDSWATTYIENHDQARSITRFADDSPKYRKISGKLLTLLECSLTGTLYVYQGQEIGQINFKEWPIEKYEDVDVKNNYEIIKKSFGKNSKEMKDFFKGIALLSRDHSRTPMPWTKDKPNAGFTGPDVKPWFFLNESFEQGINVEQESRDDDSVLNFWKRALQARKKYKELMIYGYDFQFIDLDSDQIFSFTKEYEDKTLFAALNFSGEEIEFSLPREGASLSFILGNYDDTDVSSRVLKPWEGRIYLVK

One compound from ChEMBL document CHEMBL5608256, “Nicotinic Acid Derivatives As Novel Noncompetitive α-Amylase and α-Glucosidase Inhibitors for Type 2 Diabetes Treatment” (ACS Med Chem Lett, 2024) can be followed below.

A word on the IC50: it is the concentration needed to halve the response being measured. In turn, `OCC(CO)N[C@H]1C[C@](O)(CO)[C@@H](O)[C@H](O)[C@H]1O` [VOGLIBOSE] gave an IC50 of 14.7 µM.
